According to patent publication US12085575B2, “Compositions and methods for detecting proteinopathies” (BOARD OF SUPERVISORS OF LOUISIANA STATE UNIVERSITY AND …, priority 2011, dated 2024):

System: ISG15 pathway
Assay: ISG15 immunoblot of urine-derived renal cells treated with IFNβ
Format: cell-based, human
Details: renal cells from normal children, IFNβ 24 h
From the text: We have obtained human de-identified urine samples from normal children, and isolated renal cells as described in (40). […] Also, similar to normal cells and tissues, these renal cells minimally express ISG15 (FIG. 41C, lanes 1 and 3). However, the ISG15 pathway is functional and induced in response to IFNβ (FIG. 41C, lanes 2 and 4). These cells also retained a normal karyotype in culture (FIG. 41D).

B1: IFNβ: interferon used to induce the ISG15 pathway in renal cells (protein, UniProt P01574 22-187, looked up)
Interferon beta: MSYNLLGFLQRSSNFQCQKLLWQLNGRLEYCLKDRMNFDIPEEIKQLQQFQKEDAALTIYEMLQNIFAIFRQDSSSTGWNETIVENLLANVYHQINHLKTVLEEKLEKEDFTRGKLMSSLHLKRYYGRILHYLKAKEYSHCAWTIVRVEILRNFYFINRLTGYLRN
ISG15 pathway expression: induced
